Protein sequences, listed by entry. Tags and fused reporters are not part of them. Residues count along the entry.
UniProt Q9BY41, whole entry: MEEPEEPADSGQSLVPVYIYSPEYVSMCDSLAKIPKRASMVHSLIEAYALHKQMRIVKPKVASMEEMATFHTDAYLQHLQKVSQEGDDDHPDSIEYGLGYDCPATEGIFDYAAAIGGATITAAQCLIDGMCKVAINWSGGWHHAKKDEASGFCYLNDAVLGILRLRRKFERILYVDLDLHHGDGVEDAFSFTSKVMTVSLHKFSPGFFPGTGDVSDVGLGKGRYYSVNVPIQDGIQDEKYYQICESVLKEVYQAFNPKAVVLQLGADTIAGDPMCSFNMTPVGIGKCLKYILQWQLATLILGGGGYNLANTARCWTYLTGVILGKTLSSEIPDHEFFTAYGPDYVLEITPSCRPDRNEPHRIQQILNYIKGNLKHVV
UniProt Q92769, whole entry: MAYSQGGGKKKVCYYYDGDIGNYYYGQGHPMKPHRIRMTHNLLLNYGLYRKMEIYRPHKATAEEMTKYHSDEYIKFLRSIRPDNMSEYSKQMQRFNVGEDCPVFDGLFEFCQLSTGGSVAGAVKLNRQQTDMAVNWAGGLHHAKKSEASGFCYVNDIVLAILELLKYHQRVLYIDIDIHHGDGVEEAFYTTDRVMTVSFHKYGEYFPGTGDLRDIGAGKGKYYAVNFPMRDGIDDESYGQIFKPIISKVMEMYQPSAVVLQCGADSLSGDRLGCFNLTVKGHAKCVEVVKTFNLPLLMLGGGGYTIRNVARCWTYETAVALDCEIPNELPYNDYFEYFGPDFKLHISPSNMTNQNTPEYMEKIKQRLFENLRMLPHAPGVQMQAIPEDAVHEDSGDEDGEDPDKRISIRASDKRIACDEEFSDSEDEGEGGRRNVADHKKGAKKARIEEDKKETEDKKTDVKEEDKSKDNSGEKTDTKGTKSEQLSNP
UniProt Q13547, whole entry: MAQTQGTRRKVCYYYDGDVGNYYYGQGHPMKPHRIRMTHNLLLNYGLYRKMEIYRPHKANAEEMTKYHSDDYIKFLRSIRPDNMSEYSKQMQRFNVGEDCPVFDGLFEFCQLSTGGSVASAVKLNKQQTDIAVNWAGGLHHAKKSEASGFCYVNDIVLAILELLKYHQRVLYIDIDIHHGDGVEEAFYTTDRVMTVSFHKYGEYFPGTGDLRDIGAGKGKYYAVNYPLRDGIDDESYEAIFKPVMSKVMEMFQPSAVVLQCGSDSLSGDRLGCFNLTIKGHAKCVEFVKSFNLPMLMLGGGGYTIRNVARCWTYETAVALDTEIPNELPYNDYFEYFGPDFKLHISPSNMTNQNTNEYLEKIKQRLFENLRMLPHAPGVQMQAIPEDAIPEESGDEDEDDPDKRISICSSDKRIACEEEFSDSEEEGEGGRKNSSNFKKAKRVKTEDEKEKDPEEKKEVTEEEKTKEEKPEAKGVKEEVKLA
UniProt O15379, whole entry: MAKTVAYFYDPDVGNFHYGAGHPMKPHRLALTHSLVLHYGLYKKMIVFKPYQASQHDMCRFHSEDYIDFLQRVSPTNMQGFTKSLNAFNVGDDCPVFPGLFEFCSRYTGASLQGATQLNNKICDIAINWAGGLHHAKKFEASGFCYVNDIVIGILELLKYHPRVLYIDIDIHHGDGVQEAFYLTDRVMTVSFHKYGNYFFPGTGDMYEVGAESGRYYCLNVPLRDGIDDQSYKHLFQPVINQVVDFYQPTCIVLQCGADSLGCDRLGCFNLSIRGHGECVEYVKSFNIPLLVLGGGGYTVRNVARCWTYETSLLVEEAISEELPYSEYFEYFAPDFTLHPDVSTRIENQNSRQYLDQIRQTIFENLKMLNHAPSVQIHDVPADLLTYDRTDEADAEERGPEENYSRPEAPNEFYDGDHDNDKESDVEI
UniProt Q9Y618, 389-480 partner limits assumed: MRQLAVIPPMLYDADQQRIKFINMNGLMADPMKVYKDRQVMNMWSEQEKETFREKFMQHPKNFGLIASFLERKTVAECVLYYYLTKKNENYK

According to PMC7782793, “Hydroxamic acid-modified peptide microarrays for profiling isozyme-selective interactions and inhibition of histone deacetylases” (Nature Communications, 2021):

Tests used:
Test in all cases: Recombinant HDAC µSPOT microarray binding assay;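 on Bottom Value: peptide µSPOT slides incubated with varying HDAC enzyme concentrations, imaged signal intensity fitted by four-parameter variable-slope regression, EC50 is enzyme concentration giving half-maximal binding, pH 7.4 HEPES buffer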;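 on Top Value: peptide µSPOT slides incubated with varying HDAC enzyme concentrations, imaged signal intensity fitted by four-parameter variable-slope regression, EC50 is enzyme concentration giving half-maximal binding, pH 7.4 HEPES buffer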
HDAC8 = HDAC8 (Homo sapiens, UniProt Q9BY41); conditions: for Bottom Value / Top Value: HDAC8, Fig. 5a, X = Asuha; for Bottom / HillSlope / Top: dose-response fit parameter;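 on all read-outs here: peptide µSPOT slides incubated with varying HDAC enzyme concentrations, imaged signal intensity fitted by four-parameter variable-slope regression, EC50 is enzyme concentration giving half-maximal binding, pH 7.4 HEPES buffer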
HDAC2 = HDAC2 (Homo sapiens, UniProt Q92769); conditions: H4 K12X (X = Asuha) peptides; for Bottom / HillSlope / Top: dose-response fit parameter; for LogEC50 (M): log of EC50 in M, dose-response fit;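 on Bottom: relative spot intensity from the six enzyme-concentration slides imaged together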;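 on Top: relative spot intensity from the six enzyme-concentration slides imaged together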;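 on all read-outs here: Cellulose-bound peptide spots on slides incubated with six HDAC enzyme concentrations, binding intensity read, four-parameter variable-slope fit, EC50 is enzyme concentration giving half-maximal binding, in HEPES buffer pH 7.4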
HDAC1 = HDAC1 (Homo sapiens, UniProt Q13547); conditions: H4 K12X (X = Asuha) peptides; for Bottom / Top / HillSlope: dose-response fit parameter; for LogEC50 (M): log of EC50 in M, dose-response fit;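 on Bottom: relative spot intensity from the six enzyme-concentration slides imaged together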;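 on Top: relative spot intensity from the six enzyme-concentration slides imaged together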;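 on all read-outs here: slides with spotted peptides incubated with six HDAC concentrations in HEPES buffer pH 7.4, spot intensities fitted by four-parameter logistic, EC50 as enzyme concentration giving half-maximal binding signal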
HDAC3/NCoR2 = HDAC3/NCoR2 (Homo sapiens, UniProt O15379); conditions: H4 K12X (X = Asuha) peptides; for Bottom / HillSlope / Top: dose-response fit parameter; for LogEC50 (M): log of EC50 in M, dose-response fit;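 on Top: relative spot intensity from the six enzyme-concentration slides imaged together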;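 on all read-outs here: peptide spots on cellulose slides incubated with rising HDAC enzyme concentrations, imaged together, four-parameter logistic fit, EC50 is enzyme concentration giving half-maximal binding signal, two experiments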
[1] = µSPOT microarray, H4 K12X (X = Asuha) peptides, HDAC8

Bottom Value (HDAC8)	Top Value (HDAC8)	Bottom (HDAC2)	HillSlope (HDAC2)	Top (HDAC2)	Bottom (HDAC8; [1])	HillSlope (HDAC8; [1])	Top (HDAC8; [1])	Bottom (HDAC1)	Top (HDAC1)	Bottom (HDAC3/NCoR2)	HillSlope (HDAC3/NCoR2)	LogEC50 (M) (HDAC3/NCoR2)	HillSlope (HDAC1)	LogEC50 (M) (HDAC1)	Top (HDAC3/NCoR2)	LogEC50 (M) (HDAC2)	LogEC50 (M) (HDAC8; log of EC50 in M, dose-response fit, µSPOT microarray, H4 K12X (X = Asuha) peptides, HDAC8)	Structure (SMILES)
0.06	1	–	–	–	–	–	–	–	–	–	–	–	–	–	–	–	–	C[C@H](N)C(=O)N[C@@H](CCCNC(=N)N)C(=O)N[C@H](C(=O)N[C@@H](CCCC[N+](C)(C)C)C(=O)N[C@@H](CCC(N)=O)C(=O)N[C@H](C(=O)N[C@@H](C)C(=O)N[C@@H](CCCNC(=N)N)C(=O)N[C@@H](CCCCCC(=O)NO)C(=O)N[C@@H](CO)C(=O)N[C@H](C(=O)NCC(=O)NCC(=O)N[C@@H](CCCCN)C(=O)N[C@@H](C)C(=O)N1CCC[C@H]1C(=O)O)[C@@H](C)O)[C@@H](C)O)[C@@H](C)O
–	–	0.08	1.65	0.72	0.08	0.35	52.59	0.01	261.81	0.04	1.98	-8.8	–	–	–	–	–	CC(C)C[C@H](NC(=O)CNC(=O)[C@H](CCCCN)NC(=O)CNC(=O)CNC(=O)[C@@H](N)CCCCN)C(=O)NCC(=O)N[C@@H](CCCCCC(=O)NO)C(=O)NCC(=O)NCC(=O)N[C@@H](C)C(=O)N[C@@H](CCCCN)C(=O)N[C@@H](CCCNC(=N)N)C(=O)O
–	–	-0.11	0.21	2.7	0.15	8.56	0.64	0.04	1.08	0.03	–	–	0.76	-7.56	0.7	–	–	CC(C)C[C@H](NC(=O)[C@@H](NC(=O)[C@H](CCCCN)NC(=O)[C@H](CCCNC(=N)N)NC(=O)[C@H](Cc1cnc[nH]1)NC(=O)[C@H](CCCNC(=N)N)NC(=O)[C@H](CCCCN)NC(=O)[C@H](C)NC(=O)CNC(=O)CNC(=O)[C@H](CCCCCC(=O)NO)NC(=O)CNC(=O)[C@H](CC(C)C)NC(=O)CNC(=O)[C@@H](N)CCCCN)C(C)C)C(=O)O
–	–	-0.86	0.13	1.39	0.28	2	0.57	0.08	0.93	0.02	0.71	-8.31	1.22	-7.75	–	–	–	CC(C)C[C@H](NC(=O)CNC(=O)[C@H](CCCCN)NC(=O)CNC(=O)CN)C(=O)NCC(=O)N[C@@H](CCCCCC(=O)NO)C(=O)NCC(=O)NCC(=O)N[C@@H](C)C(=O)N[C@@H](CCCCN)C(=O)N[C@@H](CCCNC(=N)N)C(=O)N[C@@H](Cc1cnc[nH]1)C(=O)N[C@@H](CCCNC(=N)N)C(=O)O
–	–	0.15	0.77	0.9	0.29	2	0.72	0.02	1.01	-0.12	0.27	–	0.67	-7.57	–	-7.86	–	C[C@H](NC(=O)CNC(=O)CNC(=O)[C@@H](N)CCCCCC(=O)NO)C(=O)N[C@@H](CCCCN)C(=O)N[C@@H](CCCNC(=N)N)C(=O)N[C@@H](Cc1cnc[nH]1)C(=O)N[C@@H](CCCNC(=N)N)C(=O)O
–	–	0.19	2.19	0.8	0.15	–	–	0.07	0.9	0.11	–	-8.82	1.89	-7.76	–	-8.6	-8.56	CC(C)C[C@H](NC(=O)CNC(=O)[C@H](CCCCN)NC(=O)CNC(=O)CNC(=O)[C@H](CCCCN)NC(=O)CNC(=O)[C@@H](N)CCCNC(=N)N)C(=O)NCC(=O)N[C@@H](CCCCCC(=O)NO)C(=O)NCC(=O)NCC(=O)N[C@@H](C)C(=O)N[C@@H](CCCCN)C(=O)N[C@@H](CCCNC(=N)N)C(=O)O
–	–	0.04	0.45	1.7	0.15	2	0.43	0.03	0.97	-0.01	0.55	–	0.67	-7.31	–	–	–	CC(C)C[C@H](NC(=O)CN)C(=O)NCC(=O)N[C@@H](CCCCCC(=O)NO)C(=O)NCC(=O)NCC(=O)N[C@@H](C)C(=O)N[C@@H](CCCCN)C(=O)N[C@@H](CCCNC(=N)N)C(=O)N[C@@H](Cc1cnc[nH]1)C(=O)N[C@@H](CCCNC(=N)N)C(=O)O
–	–	-0.16	0.14	194.96	0.23	2	0.75	0.1	0.93	0.07	2	–	1.97	-7.84	–	–	–	CC(C)C[C@H](N)C(=O)NCC(=O)N[C@@H](CCCCCC(=O)NO)C(=O)NCC(=O)NCC(=O)N[C@@H](C)C(=O)N[C@@H](CCCCN)C(=O)N[C@@H](CCCNC(=N)N)C(=O)N[C@@H](Cc1cnc[nH]1)C(=O)N[C@@H](CCCNC(=N)N)C(=O)O

More lines, now with the values behind:

Structure (SMILES)	Bottom Value (HDAC8)	Top Value (HDAC8)	Bottom (HDAC2)	HillSlope (HDAC2)	Top (HDAC2)	Bottom (HDAC8; [1])	HillSlope (HDAC8; [1])	Top (HDAC8; [1])	Bottom (HDAC1)	Top (HDAC1)	Bottom (HDAC3/NCoR2)	HillSlope (HDAC3/NCoR2)	LogEC50 (M) (HDAC3/NCoR2)	HillSlope (HDAC1)	LogEC50 (M) (HDAC1)	Top (HDAC3/NCoR2)	LogEC50 (M) (HDAC2)	LogEC50 (M) (HDAC8; log of EC50 in M, dose-response fit, µSPOT microarray, H4 K12X (X = Asuha) peptides, HDAC8)
CC(C)C[C@H](NC(=O)[C@@H](NC(=O)[C@H](CCCCN)NC(=O)[C@H](CCCNC(=N)N)NC(=O)[C@H](Cc1cnc[nH]1)NC(=O)[C@H](CCCNC(=N)N)NC(=O)[C@H](CCCCN)NC(=O)[C@H](C)NC(=O)CNC(=O)CNC(=O)[C@H](CCCCCC(=O)NO)NC(=O)CNC(=O)[C@@H](N)CC(C)C)C(C)C)C(=O)N[C@@H](CCCNC(=N)N)C(=O)N[C@@H](CC(=O)O)C(=O)O	–	–	0.09	0.89	0.74	0.14	4.6	0.6	0.01	5.12	0.01	1.2	-8.64	–	–	–	–	–
CC(C)C[C@H](NC(=O)CNC(=O)[C@H](CCCCN)NC(=O)CNC(=O)CNC(=O)[C@@H](N)CCCCN)C(=O)NCC(=O)N[C@@H](CCCCCC(=O)NO)C(=O)NCC(=O)NCC(=O)N[C@@H](C)C(=O)O	–	–	0.02	5.93	0.22	0.02	2.99	0.29	0.03	233.36	0.02	1.03	-8.2	–	–	1	–	–
C[C@H](N)C(=O)N[C@@H](CCCNC(=N)N)C(=O)N[C@H](C(=O)N[C@@H](CCCC[N+](C)(C)C)C(=O)N[C@@H](CCC(N)=O)C(=O)N[C@H](C(=O)N[C@@H](C)C(=O)N[C@@H](CCCNC(=N)N)C(=O)N[C@@H](CCCCCC(=O)NO)C(=O)N[C@@H](CO)C(=O)N[C@H](C(=O)NCC(=O)NCC(=O)N[C@@H](CCCCN)C(=O)N[C@@H](C)C(=O)N1CCC[C@H]1C(=O)O)[C@@H](C)O)[C@@H](C)O)[C@@H](C)OP(=O)(O)O	0.07	0.99	–	–	–	–	–	–	–	–	–	–	–	–	–	–	–	–
C[C@H](N)C(=O)N[C@@H](CCCNC(=N)N)C(=O)N[C@H](C(=O)N[C@@H](CCCCN(C)C)C(=O)N[C@@H](CCC(N)=O)C(=O)N[C@H](C(=O)N[C@@H](C)C(=O)N[C@@H](CCCNC(=N)N)C(=O)N[C@@H](CCCCCC(=O)NO)C(=O)N[C@@H](CO)C(=O)N[C@H](C(=O)NCC(=O)NCC(=O)N[C@@H](CCCCN)C(=O)N[C@@H](C)C(=O)N1CCC[C@H]1C(=O)O)[C@@H](C)O)[C@@H](C)O)[C@@H](C)O	0.05	1	–	–	–	–	–	–	–	–	–	–	–	–	–	–	–	–
C[C@H](N)C(=O)N[C@@H](CCCNC(=N)N)C(=O)N[C@H](C(=O)N[C@@H](CCCCN)C(=O)N[C@@H](CCC(N)=O)C(=O)N[C@H](C(=O)N[C@@H](C)C(=O)N[C@@H](CCCNC(=N)N)C(=O)N[C@@H](CCCCCC(=O)NO)C(=O)N[C@@H](CO)C(=O)N[C@H](C(=O)NCC(=O)NCC(=O)N[C@@H](CCCCN)C(=O)N[C@@H](C)C(=O)N1CCC[C@H]1C(=O)O)[C@@H](C)O)[C@@H](C)O)[C@@H](C)O	0.04	–	–	–	–	–	–	–	–	–	–	–	–	–	–	–	–	–
CC(C)C[C@H](NC(=O)CNC(=O)[C@H](CCCCN)NC(=O)CNC(=O)CNC(=O)[C@@H](N)CCCCN)C(=O)NCC(=O)N[C@@H](CCCCCC(=O)NO)C(=O)NCC(=O)NCC(=O)N[C@@H](C)C(=O)N[C@@H](CCCCN)C(=O)N[C@@H](CCCNC(=N)N)C(=O)N[C@@H](Cc1cnc[nH]1)C(=O)O [A11]	–	–	0.11	0.85	–	0.2	10.91	–	0.02	1.76	0.07	5.85	-8.89	–	–	–	-8.07	–
